Assay results as given in US11958812B2, “3, 5-disubstituted pyridine and 3, 5-disubstituted pyridazine derivatives and pharmaceutical use of same” (MITSUBISHI TANABE PHARMA CORPORATION, priority 2018, dated 2024).

Target: human recombinant ATX (Homo sapiens, UniProt Q13822)
Test: Enzyme inhibition test (choline release from LPC, Amplex UltraRed fluorescence)
Conditions: read-out: Experimental Example 1 human ATX IC50, 200 μM LPC substrate, 1 hr at room temperature
Method: [Enzyme Inhibition Test Method]
A mixture (10 μL) of substrate and a set of choline quantification reagents (200 μM LPC (1-Oleoyl-sn-glycero-3-phosphocholine Sigma #L1881), 25 μM Amplex UltraRed reagent (Invitrogen), 0.1 U/mL Peroxidase (TOYOBO), 1 U/mL Choline oxidase (TOYOBO)), prepared with assay buffer (50 mM Tris (pH 8.0), 140 mM NaCl, 5 mM KCl, 1 mM CaCl2, 1 mM MgCl2, 0.1% BSA (Albumin from bovine serum, SIGMA), 0.0025% Triton X-100), enzyme (0.4 ng/μL human recombinant ATX) (10 μL), compound-containing solution (100 nL) were dispensed to a 384-well plate, incubated at room temperature for 1 hr and the fluorescence (Ex. 525 nm/Em. 598 nm) was measured. As the standard, choline chloride was used. With a blank free of enzyme was taken as inhibitory rate 100%, and a control free of inhibitor as inhibitory rate 0%, the inhibitory rate was calculated, and IC50 value was calculated from the inhibitory activity percentage at each concentration.

SMILES	IC50 [nM]
O=C(O)CCC1CN(c2cncc(CCc3ccc(OC(F)(F)F)cc3)c2)CCO1 (centres unmarked)	1040
O=C(O)C1CC1C1CN(c2cncc(OC[C@H]3CC[C@H](C(F)(F)F)CC3)c2)CCO1 (single isomer, unassigned) [Example 19-2]	31
O=C(O)C1CC1C1CN(c2cncc(OC[C@H]3CC[C@H](C(F)(F)F)CC3)c2)CCO1 (single isomer, unassigned) [Example 19-4]	49

Stronger by IC50, values ahead:

IC50 [nM]	SMILES
1	O=C(O)C1CC1C1CN(c2cncc(OC[C@H]3CC[C@H](C(F)(F)F)CC3)c2)CCO1 (single isomer, unassigned) [Example 19-1]
5	O=C(O)C1CC1C1CN(c2cncc(OC[C@H]3CC[C@H](C(F)(F)F)CC3)c2)CCO1 (single isomer, unassigned) [Example 19-3]
